From PubChem BioAssay AID463082 (The Scripps Research Institute Molecular Screening Center, 2010) come the findings set out here.

Amino acid sequences for entries named in this document (tags omitted).
UniProt Q13093, whole entry: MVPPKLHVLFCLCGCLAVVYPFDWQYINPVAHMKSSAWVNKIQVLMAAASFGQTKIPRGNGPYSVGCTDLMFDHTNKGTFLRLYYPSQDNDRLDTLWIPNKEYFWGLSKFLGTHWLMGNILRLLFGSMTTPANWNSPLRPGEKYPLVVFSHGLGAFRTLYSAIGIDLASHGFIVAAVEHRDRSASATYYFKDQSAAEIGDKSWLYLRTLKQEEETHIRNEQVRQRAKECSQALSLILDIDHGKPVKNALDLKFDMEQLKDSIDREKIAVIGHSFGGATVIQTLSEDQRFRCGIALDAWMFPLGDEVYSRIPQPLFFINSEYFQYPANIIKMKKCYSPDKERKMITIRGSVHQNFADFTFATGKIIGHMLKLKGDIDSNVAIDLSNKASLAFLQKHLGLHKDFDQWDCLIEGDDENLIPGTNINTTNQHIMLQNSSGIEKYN

SMILES strings stand for the structures. The list shows a part of the results, in another mix than the full data. Active and inactive are the calls of the source.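 Rule for the calls: active = inhibition above the mean inhibition across the screen plus 3 SD (cut at about 25% in these data); inactive = the rest.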

The inhibition is the relative decrease from the control value, in per cent.

The target of this assay is Platelet-activating factor acetylhydrolase (Homo sapiens) (UniProt Q13093). Briefly: pPAFAH enzyme inhibitors, primary screen, biochemical, fluorescence polarization, human (AID 463082).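 Note: inhibitors block binding of the rhodamine activity-based probe so polarization drops; 0% = enzyme with DMSO and 100% = wells lacking pPAFAH.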 Particulars: recombinant pPAFAH, FP-rhodamine probe fluorescence polarization; at 3.39 µM; hits give high values. (In general: Fluorescence polarisation rises when a labelled molecule tumbles more slowly, as on binding a larger partner.)
As for `CN(C)C1(CNC(=O)c2cccc(C#N)c2)CCCCC1`, the inhibition was inactive: 0.82%.

Consider `CCCN1CCC(Nc2cc(OC)cc(OC)c2)CC1`, for which the inhibition was inactive: 1.7%.

With `c1ccc(CN2CCC(Nc3ccccc3)CC2)cc1`, the inhibition is inactive: 2.48%.

On to `N#Cc1ccc(C(=O)NCC2(N3CCCCC3)CCCCC2)cc1`, for which the inhibition is inactive: 2.66%.

For the molecule `CC(C)(C)OC(=O)N1CCC(N(C(=O)c2ccccc2)c2ccc(Cl)cc2)CC1`, the inhibition is inactive: 1.35%.

On to `CCOC(=O)N1CCC(Nc2ccc(C)cc2)CC1`, for which the inhibition was inactive: 2.05%.

`N/C(=N\O)c1c(N)no[n+]1[O-]`: the inhibition is inactive: -6.27%.

Regarding `CCc1cc(C(=O)NCC2(N3CCCCC3)CCCCC2)sc1C`, the inhibition was inactive: 2.31%.

Turning to `O=C(OC1CN2CCC1CC2)C1c2ccccc2C=Cc2ccccc21` (stereo not drawn), the inhibition was inactive: 0.24%.

As for `COc1cc(C(=O)NCC2(N3CCOCC3)CCCCC2)cc(OC)c1C`, the inhibition was inactive: 3.38%.

As to `O=C(NCC1(N2CCOCC2)CCCCC1)c1cc(Br)ccc1Cl`, the inhibition was inactive: -1.21%.

Take `COc1ccc(C(=O)NCC2(N3CCOCC3)CCCCC2)cc1OC`: the inhibition is inactive: 3.28%.

In the case of `COc1cccc(C(=O)N(c2cc(C)cc(C)c2)C2CCN(C(=O)OC(C)(C)C)CC2)c1`, the inhibition was inactive: 4.82%.

With `COc1cc(OC)cc(C(=O)NCC2(N3CCOCC3)CCCCC2)c1`, the inhibition was inactive: -4%.

With `CCC(CO)(C(=O)OC1CN2CCC1CC2)c1ccccc1` (stereo not drawn), the inhibition is inactive: 0.34%.

Regarding `CN1CCC(Nc2ccc(Cl)cc2)CC1`, the inhibition is inactive: 3.88%.

Regarding `CCCOc1ccc(C)cc1CN(CCCl)CCCl`, the inhibition was inactive: 0.1%.

For `CN1CCC(Nc2ccc(F)c(Cl)c2)CC1`, the inhibition was inactive: 2.84%.

For the molecule `CCOc1ncccc1C(=O)NCC1(N2CCOCC2)CCCCC1`, the inhibition was inactive: 4.71%.

`O=C(O)C1(Nc2ccccc2)CCN(Cc2ccccc2)CC1`: the inhibition is inactive: -0.83%.

As to `CC(C)(C)OC(=O)N1CCC(Nc2ccccc2)CC1`, the inhibition was inactive: 3.71%.

Take `CCCOc1ccc(C(=O)NCC2(N(C)C)CCCCC2)cc1`: the inhibition is inactive: 0.04%.

On to `CCN1CCC(Nc2cccc(F)c2)CC1`, for which the inhibition is inactive: 3.17%.

Consider `CN(C)c1ccc(C(=O)NCC2(N3CCCCC3)CCCCC2)cc1`, for which the inhibition is inactive: 0.57%.

In the case of `O=C(NCC1(N2CCCCC2)CCCCC1)c1ccco1`, the inhibition was inactive: -5.64%.

Consider `COc1cc(OC)cc(C(=O)NCC2(N3CCCCC3)CCCCC2)c1`, for which the inhibition was inactive: -6.87%.

As to `Fc1ccccc1NC1CCN(Cc2ccccc2)CC1`, the inhibition was inactive: 0.64%.

Regarding `Cc1ccc(C(=O)NCC2(N3CCCCC3)CCCCC2)o1`, the inhibition is inactive: 0.8%.

For `Cc1ccc(OCC(C)C)c(CN(CCCl)CCCl)c1`, the inhibition is inactive: 4.45%.

In the case of `CCOC(=O)N1CCC(Nc2cccc(C)c2)CC1`, the inhibition was inactive: 2.18%.

Consider `CCOc1ccc(C)cc1CN(CCCl)CCCl`, for which the inhibition is inactive: 3.2%.

As for `COc1ccc(NC2CCN(CCc3ccccc3)CC2)c(OC)c1`, the inhibition was inactive: 1.67%.

In the case of `O=C(NCC1(N2CCCCC2)CCCCC1)c1ccc(F)cc1`, the inhibition is inactive: -3.36%.

As to `Cc1cc(C)cc(N(C(=O)c2ccccc2)C2CCN(C(=O)OC(C)(C)C)CC2)c1`, the inhibition is inactive: 1.28%.

Take `O=C(NCC1(N2CCCCC2)CCCCC1)c1ccc(Cl)nc1`: the inhibition is inactive: -2.01%.

As to `O=C(NCC1(N2CCOCC2)CCCCC1)c1cc2ccccc2o1`, the inhibition is inactive: 12%.

For the molecule `COc1ccc(Cl)cc1C(=O)NCC1(N2CCOCC2)CCCCC1`, the inhibition was inactive: 0.47%.

In the case of `N#CC1(Nc2ccccc2)CCN(Cc2ccccc2)CC1`, the inhibition is inactive: 4.27%.

Turning to `O=C(NCC1(N2CCCCC2)CCCCC1)c1ccc(Cl)s1`, the inhibition was inactive: -2.74%.

Turning to `O=C(OC1CN2CCC1CC2)C1c2ccccc2Oc2ccccc21` (stereo not drawn), the inhibition was inactive: -0.93%.

In the case of `CCOC(=O)N1CCC(Nc2ccc(OC)cc2)CC1`, the inhibition was inactive: 5.06%.

Turning to `COc1ccc(C(=O)NCC2(N3CCCCC3)CCCCC2)c(OC)c1OC`, the inhibition is inactive: 2.03%.

For `CC(C)(C)OC(=O)N1CCC(N(C(=O)c2ccccc2)c2ccc(F)cc2)CC1`, the inhibition is inactive: 3.49%.

For `COc1ccc(C(=O)NCC2(N3CCCCC3)CCCCC2)cc1`, the inhibition was inactive: 5.71%.

As for `O=C(NCC1(N2CCCCC2)CCCCC1)c1cccs1`, the inhibition was inactive: 2.72%.

Regarding `O=C(NCC1(N2CCCCC2)CCCCC1)c1ccc(=O)[nH]c1`, the inhibition was inactive: 1.16%.

On to `CSc1ccccc1C(=O)NCC1(N2CCCCC2)CCCCC1`, for which the inhibition was inactive: 1.04%.

As for `CN1CCC(Nc2cccc(F)c2)CC1`, the inhibition was inactive: 4.22%.

For `O=C(NCC1(N2CCCCC2)CCCCC1)c1cncc(Br)c1`, the inhibition was inactive: -0.65%.

`CC(C)c1ccc(NC2CCN(C(=O)OC(C)(C)C)CC2)cc1`: the inhibition was inactive: 1.51%.

As to `CN(C)c1cccc(C(=O)NCC2(N3CCCCC3)CCCCC2)c1`, the inhibition is inactive: 0.54%.

As to `COc1ccc(CN(CCCl)CCCl)cc1Cl`, the inhibition is inactive: 0.94%.

Consider `O=C(NCC1(N2CCOCC2)CCCCC1)c1cc(F)c(F)cc1Cl`, for which the inhibition is inactive: 2.68%.

As for `COc1cc(OC)c(C(=O)NCC2(N(C)C)CCCCC2)cc1OC`, the inhibition is inactive: 4.76%.

As to `O=C(NCC1(N2CCCCC2)CCCCC1)c1cccc(C(F)(F)F)c1`, the inhibition was inactive: 2.3%.

As to `O=C(NCC1(N2CCOCC2)CCCCC1)c1cc(=O)[nH]c2ccccc12`, the inhibition was inactive: -3.03%.

On to `COc1cc(C(=O)NCC2(N3CCCCC3)CCCCC2)ccc1OC(F)F`, for which the inhibition was inactive: 2.3%.

In the case of `COc1ccc(NC2CCN(C(=O)OC(C)(C)C)CC2)cc1`, the inhibition is inactive: -4.44%.

With `CN1CCN(CCOC(=O)C(O)(c2ccccc2)c2ccccc2)CC1`, the inhibition was inactive: -0.5%.

Take `O=C(NCC1(N2CCCCC2)CCCCC1)c1ccc(OC(F)F)cc1`: the inhibition is inactive: -0.26%.

On to `N#CC1(Nc2ccccc2)CCN(CCc2ccccc2)CC1`, for which the inhibition is inactive: 3.53%.

As to `CCN1CCC(Nc2ccc(Cl)cc2)CC1`, the inhibition was inactive: 5.63%.

Regarding `O=C(NCC1(N2CCCCC2)CCCCC1)c1cccc([N+](=O)[O-])c1`, the inhibition is inactive: 2.41%.
